In PubChem BioAssay AID504766 (The Scripps Research Institute Molecular Screening Center, 2011):
The entries are a selection whose mix differs from that of the whole data set. Some of these compounds have results that are not shown, active ones among them. Active and inactive are the calls of the source.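 The calls were made as follows: active = inhibition above the mean over all tested compounds plus 3 SD (cut at about 4.2% in these data); inactive = the rest.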

The chains behind the UniProt entries cited, without tags or fusion partners. Residues count along the entry.
UniProt P51843, 207-470 limits assumed: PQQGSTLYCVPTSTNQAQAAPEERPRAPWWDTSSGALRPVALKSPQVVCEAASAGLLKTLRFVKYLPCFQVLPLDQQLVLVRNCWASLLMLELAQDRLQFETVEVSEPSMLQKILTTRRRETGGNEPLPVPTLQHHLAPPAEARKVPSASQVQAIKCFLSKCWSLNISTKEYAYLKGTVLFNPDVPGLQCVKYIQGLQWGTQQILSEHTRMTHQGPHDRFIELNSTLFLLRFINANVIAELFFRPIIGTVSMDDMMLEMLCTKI

Target: Nuclear receptor subfamily 0 group B member 1 (Homo sapiens) (UniProt P51843)
Test: DAX1 (NR0B1) inhibitors, primary screen, cell-based, HEK293, Gal4-DAX1, luciferase luminescence (AID 504766);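 also: 0% = DAX1-transfected cells with DMSO and 100% = empty-vector control cells with DMSO; inhibition shows as a rise in luminescence from relieved DAX1 repression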
Conditions: HEK293 Gal4-DAX1 luciferase reporter, at 6.75 µM, active compounds read high

Row | SMILES | inhibition
1 | COc1cc(C(=O)NCC2(N(C)C)CCCCC2)c([N+](=O)[O-])cc1OC | inactive: 1.92%
2 | CN(C)C1(CNC(=O)c2ccc(Br)cc2)CCCCC1 | inactive: 2%
3 | O=C(NCC1(N2CCCCC2)CCCCC1)c1cccc(Cl)c1 | inactive: 2.91%
4 | COc1cccc(C(=O)NCC2(N3CCCCC3)CCCCC2)c1 | inactive: 2.24%
5 | COc1ccc(Cl)cc1C(=O)NCC1(N(C)C)CCCCC1 | inactive: 1.58%
6 | O=C(OC1CN2CCC1CC2)C(CO)(c1ccccc1)c1ccccc1 (stereo unspecified) | inactive: 0.54%
7 | CC(C)Oc1ccc(C(=O)NCC2(N(C)C)CCCCC2)cc1 | inactive: 1.13%
8 | O=C(OCCN1CCCC1)C(O)(c1ccccc1)c1ccccc1 | inactive: 1.58%
9 | CN(C)c1cccc(C(=O)NCC2(N(C)C)CCCCC2)c1 | inactive: 0.31%
10 | C=C(C)C#CC(O)(C(=O)OC1CCN(C)CC1)c1ccccc1 (stereo unspecified) | inactive: 0.6%
11 | COc1ccc(Br)c(C(=O)NCC2(N3CCCCC3)CCCCC2)c1 | inactive: 1.08%
12 | CN1[C@@H]2CC[C@H]1CC(OC(=O)C(O)(c1ccccc1)c1ccccc1)C2 (stereo partly specified) | inactive: 2.96%
13 | O=C(NCC1(N2CCCCC2)CCCCC1)c1cc([N+](=O)[O-])ccc1Cl | inactive: 0.06%
14 | Cc1ccc(C(=O)NCC2(N3CCCCC3)CCCCC2)cc1 | inactive: -0.16%
15 | CCN(CC)CC(C)C(C)OC(=O)C(O)(c1ccccc1)c1ccccc1 (stereo unspecified) | inactive: -0.72%
16 | COc1cc(SC)ccc1C(=O)NCC1(N(C)C)CCCCC1 | inactive: 1.11%
17 | CC(C)N1C(=O)CC2(CCN(CCOC(=O)C(O)(c3ccccc3)c3ccccc3)CC2)C1=O | inactive: 0.66%
18 | Cc1ccccc1C(=O)NCC1(N2CCCCC2)CCCCC1 | inactive: 1.1%
19 | CN(C)c1ccc(C(=O)NCC2(N(C)C)CCCCC2)cc1 | inactive: -0.88%
20 | CN(C)C1CCCC1OC(=O)C(O)(c1ccccc1)c1ccccc1 (stereo unspecified) | inactive: 1.14%
21 | COc1ccc(C(=O)NCC2(N(C)C)CCCCC2)cc1 | inactive: 2.33%
22 | CCN1CCCC(OC(=O)C2(O)c3ccccc3C=Cc3ccccc32)C1 (stereo unspecified) | inactive: -0.54%
23 | Cc1cc(C(=O)NCC2(N3CCCCC3)CCCCC2)ccc1[N+](=O)[O-] | inactive: 1.17%
24 | O=C(NCC1(N2CCCCC2)CCCCC1)c1cccc(Br)c1 | inactive: 3.52%
25 | C=CCN1CCN(CCOC(=O)C(O)(c2ccccc2)c2ccccc2)CC1 | inactive: -0.72%
26 | O=C(NCC1(N2CCCCC2)CCCCC1)c1cc(F)c(F)cc1Cl | inactive: 0.92%
